Values quoted from earlier work as cited in US20070244041A1, “Peptide Yy Analogues” (Reoscience A/S, priority 2004, published 2007).

Columns and labels:
[1] = not given; remark: listed apart in the source
Y2 receptors = conditions: 30, 300 and 3000 μg/kg bw

## PYY3-36: endogenous peptide YY (3-36), sequence SEQ ID NO: 2, Y2-selective
Acute i.p. injections, 30, 300 and 3000 μg/kg bw
  4 hour food intake: inhibits 4 hour food intake
Chronic treatment, twice daily injections of 50 μg/kg bw, rats
  weight gain: suppresses weight gain
[1]; 90 min intravenous infusion, healthy human volunteers
  appetite: reduction in appetite
[1]; 90 min intravenous infusion, healthy human volunteers, following 12 hours
  caloric intake: reduced caloric intake
[1]; peripherally administered, obese individuals
  food inhibitory effect in obese individuals: present also in obese individuals
Y2 receptors
  caloric intake in mice lacking the Y2 receptor: fail to reduce caloric intake
Y2 over Y1 receptors
  selectivity for Y2 over Y1 receptors: high selectivity
